Literature values as cited in publication PMC2999882 (Molecular pharmacology, 2008).

System: α4β2 tyrosine to phenylalanine mutant
Conditions: cited from earlier work

Q: Which “fold increase in efficacy by the tyrosine to phenylalanine mutation in α4β2” value does the source give for `COc1cc(O)ccc1/C=C1\CCCN=C1c1cccnc1` [4OH-GTS-21] here?
A: The value was 200 fold.
